GIV Gai3 FP – inhibitors of GIV GBA-motif binding to rat Galpha-i3; P08753; Galpha-i3/FITC-GIV peptide fluorescence polarization, 90 min; active compounds read low; scaled: aluminum fluoride 0%, vehicle 100%; percent of control (FP), % (test concentration not listed); 210,000 tested, 0.42% active; AID 1224905;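 active = replicate mean at 85% of control or lower, very high polarization wells dropped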;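 note: lower values mean more displacement of the GIV peptide from Galpha-i3; wells of about 15 µL received 100 nL stock; the first replicate is given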
HCMV UL50-53 inh – inhibitors of HCMV UL50-UL53 nuclear egress complex interaction; inhibition, % (test concentration not listed); HTRF UL50-UL53 interaction, normalized percent inhibition; AID 1918969; actives 0.15% (n = 190,000); in the data active = inhibition above about 27%, passing the limit was not always enough
GIV Gai FP conf – GIV-Galpha-i3 inhibition, FP confirmation; shares compounds with GIV Gai3 FP; fluorescence polarization, mP at 100 µM; actives 38% (n = 580); FITC-GIV peptide binding to Galphai3, fluorescence polarization; active compounds read low;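 active = inhibition score of 15 or more, meaning 100 minus mean polarization as percent of control over three replicates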;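 note: lower mP means peptide displaced from Galphai3 so more inhibition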
GIV-Gai AS conf – GIV-Galpha-i3 inhibition, AlphaScreen confirmation. shares compounds with GIV Gai3 FP. AlphaScreen Galphai3-GIV binding, purified proteins, 90 min; active compounds read low. AlphaScreen counts at 100 µM. actives 39% (n = 580);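 active = inhibition score at or above a set limit, where the score is 100 minus the three-replicate mean percent of control signal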
Of the large screens only hits and unclear results are named; the others gave an inactive call (follow-up assays come after a bar, where they were run). This excerpt belongs to a sample that is enriched for hits.

Cc1nc2c(-c3ccc(F)cc3)c(C)nn2c(C)c1CCC(=O)Nc1cccnc1	none
Oc1sc(-c2ccccc2)cc1C=Nc1ccccc1	GIV Gai3 FP 84.0 (no result: HCMV UL50-53 inh) | GIV Gai FP conf inactive | GIV-Gai AS conf inactive
Oc1ccccc1C=Nc1cccc(N=Cc2ccccc2O)c1	none (no result: HCMV UL50-53 inh)
COc1ccccc1/C=C1/SC(=O)N(CCC(=O)Nc2ccccc2)C1=O	none (no result: GIV Gai3 FP)
COc1ccc(C(=O)c2sc3nc(C)cc(C(F)(F)F)c3c2N)cc1OC	GIV Gai3 FP 62.5 (no result: HCMV UL50-53 inh) | GIV Gai FP conf inactive | GIV-Gai AS conf inactive
Cc1cc(C(F)(F)F)c2c(N)c(C(=O)Nc3cccc(C(F)(F)F)c3)sc2n1	GIV Gai3 FP 81.7 (no result: HCMV UL50-53 inh) | GIV Gai FP conf inactive | GIV-Gai AS conf inactive
CCc1nc2sc(C(=O)Nc3cccc(C(F)(F)F)c3)c(N)c2cc1C	none (no result: HCMV UL50-53 inh)
COC(=O)c1sc2nc(C)cc(C(F)(F)F)c2c1N	none (no result: GIV Gai3 FP)
Cc1ccccc1COC(=O)c1nnn(-c2ccc(Br)cc2)c1C	none
CCOc1ccc(-n2c(/C=C/c3cc(OC)c(OC)cc3OC)nc3cc(OC)c(OC)cc3c2=O)cc1	none (no result: HCMV UL50-53 inh)
O=c1ccc(-c2ccc(S(=O)(=O)NCCSCc3ccco3)s2)n[nH]1	none
O=c1[nH]c2ccccc2nc1NCc1ccccc1	none
Nc1nc(NCc2ccccc2)c(I)c(=O)[nH]1	GIV Gai3 FP 50.2, HCMV UL50-53 inh 65.8 | GIV Gai FP conf 46.3 | GIV-Gai AS conf 2457
C/C(=N/NC(=O)C(F)(F)F)c1cccs1	none
C/C(=N\NC(=O)C(F)(F)F)c1ccccc1O	none | GIV Gai FP conf inactive | GIV-Gai AS conf inactive
S=C(SN1CCOCC1)N1CCOCC1	none (no result: GIV Gai3 FP)
CCCCSc1nnc2c(n1)OC(c1cccs1)Nc1ccccc1-2 (configuration not stated)	none
CCCCSc1nnc2c(n1)OC(c1ccc(Br)s1)Nc1ccccc1-2 (configuration not stated)	GIV Gai3 FP 40.3 | GIV Gai FP conf inactive | GIV-Gai AS conf inactive
O=C(CCC(=O)c1ccc2c(c1)OCCCO2)OCc1nc2ccccc2o1	none (no result: GIV Gai3 FP)
O=C(Nc1cccc(C(F)(F)F)c1)c1cccc(S(=O)(=O)N2CCCC2)c1	none
COc1ccccc1-c1cc(C(F)(F)F)n2ncc(C(=O)N3CCCC3c3cc(C)on3)c2n1 (configuration not stated)	none (no result: HCMV UL50-53 inh)
O=C(O)c1cccc(NC(=O)c2cccc(S(=O)(=O)Nc3cccc(C(=O)O)c3)c2)c1	none (no result: HCMV UL50-53 inh)
O=C(Nc1cccc(C(=O)Nc2ccc(S(=O)(=O)O)c3cc(S(=O)(=O)O)cc(S(=O)(=O)O)c23)c1)Nc1cccc(C(=O)Nc2ccc(S(=O)(=O)O)c3cc(S(=O)(=O)O)cc(S(=O)(=O)O)c23)c1	GIV Gai3 FP 0.1 | GIV Gai FP conf 33 | GIV-Gai AS conf 3059
Cc1c2c(n3c(nc4ccccc43)c1C#N)N(CCN1CCOCC1)CC2	none | GIV Gai FP conf inactive | GIV-Gai AS conf inactive
Cc1c2c(n3c(nc4ccccc43)c1C#N)N(C1CCCC1)CC2	none
Cc1ccc(NC(=O)NCCC2CCN(S(=O)(=O)c3ccccc3)CC2)c(C)c1	none (no result: HCMV UL50-53 inh)
COC(=O)CSc1ncnc2ccccc12	none (no result: GIV Gai3 FP)
COC(=O)CSc1ccc2c3c(cccc13)C(=O)c1ccccc1-2	GIV Gai3 FP 67.7 (no result: HCMV UL50-53 inh) | GIV Gai FP conf 22.4 | GIV-Gai AS conf inactive
Cc1cc(/C=C2\SC(=Nc3ccccc3)NC2=O)c(C)n1-c1ccccc1	none | GIV Gai FP conf inactive | GIV-Gai AS conf inactive
CCc1ccc(N=C2NC(=O)/C(=C/c3cc(C)n(CC)c3C)S2)cc1	none
CCOC(=O)c1cnc(SCC(=O)N2c3ccccc3SC3C=CC=CC32)nc1N (configuration not stated)	none
COc1ccc(C2=CC(=O)N(c3ccccc3)C(c3ccccc3)O2)cc1 (configuration not stated)	none (no result: HCMV UL50-53 inh) | GIV Gai FP conf inactive | GIV-Gai AS conf inactive
COc1ccc(C2N(c3ccccc3)OC(=O)N2c2ccccc2)cc1 (configuration not stated)	none (no result: HCMV UL50-53 inh)
N#Cc1c2ccc(OCC(N)=O)cc2n2ccccc12	none
CCOC(=O)COc1ccc2c(C#N)c3ccccn3c2c1	GIV Gai3 FP 43.0 | GIV Gai FP conf inactive | GIV-Gai AS conf inactive
O=C1S/C(=C\c2ccccc2)C(=O)N1CN1CCOCC1	none
C=CCN1C(=O)S/C(=C/c2ccc(N3CCOCC3)cc2)C1=O	none | GIV Gai FP conf inactive | GIV-Gai AS conf inactive
CCOc1ccc(NC(=O)c2cc3c(C)nn(-c4ccc(Cl)cc4)c3s2)cc1	none (no result: HCMV UL50-53 inh)
Nc1ccc2c(c1)OC1(O)c3ccccc3C(=O)C21O (configuration not stated)	none (no result: GIV Gai3 FP)
O=C1CCCC2=C1C1(O)C(=O)c3ccccc3C1(O)O2 (configuration not stated)	GIV Gai3 FP 58.6, HCMV UL50-53 inh 78.4 | GIV Gai FP conf 53.7 | GIV-Gai AS conf inactive
Nc1nc2ccc(CCC(=O)O)cc2s1	GIV Gai3 FP 56.8 | GIV Gai FP conf 60.1 | GIV-Gai AS conf 3278
CCc1ccc2nc(N)sc2c1	none (no result: HCMV UL50-53 inh)
Cc1onc(-c2ccccc2)c1C(=O)N(Cc1ccccc1)Cc1ccccc1	none (no result: HCMV UL50-53 inh)
COC(=O)Cn1c(=N)n(Cc2ccccc2)c2ccccc21	none
N#Cc1ccsc1/N=C/c1ccccc1	none
Cc1ccc(/C=N/c2sccc2C#N)cc1	GIV Gai3 FP 48.4 | GIV Gai FP conf 39.8 | GIV-Gai AS conf 10146
Cc1cc(C(=O)CN2C(=O)NCC(C)C2=O)c(C)n1C (configuration not stated)	none (no result: GIV Gai3 FP)
O=C(CN1N=C(c2ccccc2)c2cc(Cl)ccc2S1(=O)=O)Nc1ccc2c(c1)OCO2	none
O=C1c2ccccc2C(=O)C2(O)OCCOC12O (configuration not stated)	GIV Gai3 FP 50.9, HCMV UL50-53 inh 105.8 | GIV Gai FP conf 61.8 | GIV-Gai AS conf inactive
CCN(c1ccccc1)C1(O)C(=O)c2ccccc2C1=O	none (no result: HCMV UL50-53 inh)
O=C(CC1(O)C(=O)c2ccccc2C1=O)c1ccccc1	none (no result: GIV Gai3 FP)
CCOC1(O)C(=O)c2ccccc2C(=O)C1(O)OCC (configuration not stated)	GIV Gai3 FP 72.0, HCMV UL50-53 inh 97.2 | GIV Gai FP conf inactive | GIV-Gai AS conf inactive
CC(=O)NC1=NC(=O)/C(=C\c2cccs2)N1C	GIV Gai3 FP 80.3 | GIV Gai FP conf 45.3 | GIV-Gai AS conf inactive
NC1=NC(=O)/C(=C/c2cccs2)S1	none
Cc1cc(C(=O)O/N=C/c2c(Cl)cccc2Cl)nn1C	none
COc1ccc(C(=O)Nc2cccc(-c3cn4ccsc4n3)c2)cc1	none (no result: HCMV UL50-53 inh)
O=C(CSc1nnc(-c2ccccn2)c(-c2ccccn2)n1)c1ccc(N2CCCC2=O)cc1	none
O=C(CSc1nnc2c(n1)CCCC2)c1ccc(N2CCCC2=O)cc1	GIV Gai3 FP 65.7 | GIV Gai FP conf 53 | GIV-Gai AS conf 2430
Cc1ccc(S(=O)(=O)n2cc(/C=C(\C#N)C(N)=O)c3ccccc32)cc1	none (no result: GIV Gai3 FP)
Cc1cc2c(cc1C)N(C(=O)C(C)C)C(C)(C)c1ssc(=S)c1-2	none (no result: HCMV UL50-53 inh) | GIV Gai FP conf inactive | GIV-Gai AS conf inactive
CCC(C)C(=O)N1c2cc(C)c(C)cc2-c2c(ssc2=S)C1(C)C (configuration not stated)	none (no result: HCMV UL50-53 inh)
CC(C)CCNC(=O)CSc1nnc2n(CC(C)C)c(=O)c3sccc3n12	none
COc1ccc2ccccc2c1S(N)=O (configuration not stated)	none
CC(=Nc1ccccc1O)c1sc2ccccc2c1O	none
CC(=Nc1ccccc1Br)c1sc2ccccc2c1O	GIV Gai3 FP 71.5 | GIV Gai FP conf inactive | GIV-Gai AS conf inactive
